According to US9828369B2, “Isoquinoline derivatives useful as inhibitors of diacylglyceride O-acyltransferase 2” (Merck Sharp & Dohme Corp., priority 2014, dated 2017):
Where two headings read alike, the source gives them in different places.

Protein sequences, listed by entry. Tags and fused reporters are not part of them. Lines headed by an entry give the natural chain unless they say otherwise; changes in a name come on top.
UniProt Q96PD7: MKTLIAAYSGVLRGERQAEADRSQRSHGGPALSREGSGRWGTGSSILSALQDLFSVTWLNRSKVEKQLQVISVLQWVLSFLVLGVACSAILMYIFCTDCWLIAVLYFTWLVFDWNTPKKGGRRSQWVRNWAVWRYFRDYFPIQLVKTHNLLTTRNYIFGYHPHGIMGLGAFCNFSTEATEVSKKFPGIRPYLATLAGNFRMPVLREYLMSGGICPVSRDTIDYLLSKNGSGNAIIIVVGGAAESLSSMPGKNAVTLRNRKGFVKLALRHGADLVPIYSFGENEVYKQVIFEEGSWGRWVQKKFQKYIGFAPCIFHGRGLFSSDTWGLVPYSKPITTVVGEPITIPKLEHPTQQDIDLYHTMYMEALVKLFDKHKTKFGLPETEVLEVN

Molecular target: hDGAT2 (Homo sapiens (Human), UniProt Q96PD7)
Assay: DGAT2 enzymatic activity assay (triolein formation, LC/MS/MS)

IC50 [nM] | IC50 (read-out: IC50 values for inhibition of DGAT2, membrane prep of Sf-9 cells expressing hDGAT2, 25 μM diolein, 10 μM oleoyl-CoA, room temperature, triolein by LC/MS/MS) [nM] | SMILES
319 |  | COc1cccc(-c2ccc(CNC(=O)[C@H](C)c3ccc(-c4ccccc4)c(F)c3)c3cnccc23)c1 (stereo in doubt) [Example 145, (R/S)-2-(2-fluoro-[1,1′-biphenyl]-4-yl)-N-((5-(3-methoxyphenyl)isoquinolin-8-yl)methyl)propanamide]
 | 1190 | COc1cccc(-c2ccc(CNC(=O)C(C)c3cc(C(F)(F)F)cc(C(F)(F)F)c3)c3cnccc23)c1 (stereo not drawn) [Example 147, 2-(3,5-bis(trifluoromethyl)phenyl)-N-((5-(3-methoxyphenyl)isoquinolin-8-yl)methyl)propanamide]
624 |  | COc1cccc(-c2ccc(CNC(=O)[C@@H](C)c3ccc(-c4ccccc4)c(F)c3)c3cnccc23)c1 (stereo in doubt) [Example 140, (R/S)-2-(2-fluoro-[1,1′-biphenyl]-4-yl)-N-((5-(3-methoxyphenyl)isoquinolin-8-yl)methyl)propanamide]
